Values joined by “and” are separate entries in the source; they are usually repeats but may differ in a detail not shown here. Identical values can stand only once. The list shows a part of the results, in another mix than the full data. Inconclusive results are not listed. Some compounds were tested as several samples or in several runs, with calls that do not always agree. Active and inactive are the calls of the source. Unless noted, calls come from the whole dose curve; as a rule, active = well fitted curve in the direction sought with a large enough effect in the repeat runs; inconclusive = weak or mixed curves; inactive = no such curve, though single readings can be large; an effect the other way counts as inactive or inconclusive.
Legend:
[1] = molecular target: Aryl hydrocarbon receptor (Homo sapiens) (UniProt P35869); assay: qHTS assay to identify small molecule that activate the aryl hydrocarbon receptor (AhR) signaling pathway (AID 743085); conditions: HepG2 AhR-luc (HG2L7.5c1), luciferase, 24 h; series mostly up to 70.3 µM; note: nearly all actives have a fitted effect of over 15% in size; note: potency is the fitted concentration of half-maximal effect;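 for activation: HG2L7.5c1 human HepG2 liver cells with stably integrated DRE-driven firefly reporter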
Aromatase (Homo sapiens) = Aromatase (Homo sapiens) (UniProt P11511); assay: qHTS assay to identify aromatase inhibitors (AID 743083); conditions: MCF-7 aro ERE, testosterone-driven ERE luciferase, 24 h; series mostly up to 70.3 µM; note: nearly all actives have a fitted effect of over 55% in size; note: potency is the fitted concentration of half-maximal effect
[2] = qHTS assay to identify aromatase inhibitors - cell viability counter screen (AID 743084); conditions: MCF-7 aro ERE viability, CellTiter-Fluor, 24 h; series mostly up to 70.3 µM;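 note: cells stimulated with testosterone during compound exposure; nearly all actives have a fitted effect of over 55% in size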; note: potency is the fitted concentration of half-maximal effect
[3] = qHTS assay to identify small molecule antagonists of the peroxisome proliferator-activated receptor gamma (PPARg) signaling pathway - cell viability counter screen (AID 743194); conditions: PPARg-bla HEK293H viability, CellTiter-Glo luminescence, 17 h, co-treated with 50 nM rosiglitazone; series mostly up to 62.6 µM; note: nearly all actives have a fitted effect of over 55% in size; note: potency is the fitted concentration of half-maximal effect
Summary of the method: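 Viability was measured as CellTiter-Glo luminescence in GeneBLAzer PPARg UAS-bla HEK293H cells. These cells had been exposed 17 h at 37 C to compounds together with rosiglitazone at 50 nM final, with the beta-lactamase readout taken in the same wells.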

Protein sequences, listed by entry. Tags and fused reporters are not part of them. Lines headed by an entry give the natural chain unless they say otherwise; changes in a name come on top.
UniProt P35869: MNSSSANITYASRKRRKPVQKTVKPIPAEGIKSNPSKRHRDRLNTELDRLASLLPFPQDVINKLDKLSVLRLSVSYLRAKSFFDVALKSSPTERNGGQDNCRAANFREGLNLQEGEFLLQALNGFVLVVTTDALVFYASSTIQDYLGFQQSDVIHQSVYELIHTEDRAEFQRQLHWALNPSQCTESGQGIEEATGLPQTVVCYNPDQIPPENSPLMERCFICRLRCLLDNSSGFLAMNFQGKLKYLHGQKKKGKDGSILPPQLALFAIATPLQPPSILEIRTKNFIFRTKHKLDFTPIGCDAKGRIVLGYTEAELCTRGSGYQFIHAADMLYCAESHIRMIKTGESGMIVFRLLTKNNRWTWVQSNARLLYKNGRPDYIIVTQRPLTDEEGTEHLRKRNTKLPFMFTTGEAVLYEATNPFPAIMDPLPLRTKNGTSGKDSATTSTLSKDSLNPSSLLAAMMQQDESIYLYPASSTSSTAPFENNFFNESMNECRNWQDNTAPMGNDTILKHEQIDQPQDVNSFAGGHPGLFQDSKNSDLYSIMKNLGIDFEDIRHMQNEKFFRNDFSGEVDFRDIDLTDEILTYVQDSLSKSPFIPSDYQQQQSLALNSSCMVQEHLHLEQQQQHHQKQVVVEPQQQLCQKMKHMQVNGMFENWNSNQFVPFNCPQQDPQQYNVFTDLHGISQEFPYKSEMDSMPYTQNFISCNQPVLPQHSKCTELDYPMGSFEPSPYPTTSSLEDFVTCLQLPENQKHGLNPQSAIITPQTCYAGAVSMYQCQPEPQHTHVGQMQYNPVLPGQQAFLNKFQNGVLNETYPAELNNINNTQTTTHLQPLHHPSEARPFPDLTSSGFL
UniProt P11511: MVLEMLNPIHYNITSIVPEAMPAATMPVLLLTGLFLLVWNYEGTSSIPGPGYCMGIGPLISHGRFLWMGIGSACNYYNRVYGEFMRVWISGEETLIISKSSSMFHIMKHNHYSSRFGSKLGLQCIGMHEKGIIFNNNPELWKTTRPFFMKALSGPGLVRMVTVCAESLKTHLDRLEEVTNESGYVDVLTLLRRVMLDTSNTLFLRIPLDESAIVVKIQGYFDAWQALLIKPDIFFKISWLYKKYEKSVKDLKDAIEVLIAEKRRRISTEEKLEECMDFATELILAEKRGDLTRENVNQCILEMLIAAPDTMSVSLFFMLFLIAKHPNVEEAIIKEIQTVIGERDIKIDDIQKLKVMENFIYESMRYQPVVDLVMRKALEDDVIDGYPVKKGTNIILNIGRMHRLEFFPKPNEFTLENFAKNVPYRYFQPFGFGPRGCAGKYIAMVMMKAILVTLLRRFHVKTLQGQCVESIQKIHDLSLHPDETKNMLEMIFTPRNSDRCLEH
UniProt P37231: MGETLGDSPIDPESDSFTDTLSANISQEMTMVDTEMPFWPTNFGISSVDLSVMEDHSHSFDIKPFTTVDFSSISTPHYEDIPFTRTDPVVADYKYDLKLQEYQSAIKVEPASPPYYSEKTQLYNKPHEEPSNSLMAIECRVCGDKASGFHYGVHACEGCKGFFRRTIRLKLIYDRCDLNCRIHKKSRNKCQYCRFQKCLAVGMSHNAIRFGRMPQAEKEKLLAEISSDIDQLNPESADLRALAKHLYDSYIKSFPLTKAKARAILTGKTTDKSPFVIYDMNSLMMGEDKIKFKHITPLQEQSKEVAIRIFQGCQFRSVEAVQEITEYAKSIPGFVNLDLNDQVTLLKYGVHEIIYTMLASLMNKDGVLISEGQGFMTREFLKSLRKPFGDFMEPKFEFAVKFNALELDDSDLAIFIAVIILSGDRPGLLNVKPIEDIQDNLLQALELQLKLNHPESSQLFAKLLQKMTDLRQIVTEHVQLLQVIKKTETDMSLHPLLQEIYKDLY
UniProt Q03181: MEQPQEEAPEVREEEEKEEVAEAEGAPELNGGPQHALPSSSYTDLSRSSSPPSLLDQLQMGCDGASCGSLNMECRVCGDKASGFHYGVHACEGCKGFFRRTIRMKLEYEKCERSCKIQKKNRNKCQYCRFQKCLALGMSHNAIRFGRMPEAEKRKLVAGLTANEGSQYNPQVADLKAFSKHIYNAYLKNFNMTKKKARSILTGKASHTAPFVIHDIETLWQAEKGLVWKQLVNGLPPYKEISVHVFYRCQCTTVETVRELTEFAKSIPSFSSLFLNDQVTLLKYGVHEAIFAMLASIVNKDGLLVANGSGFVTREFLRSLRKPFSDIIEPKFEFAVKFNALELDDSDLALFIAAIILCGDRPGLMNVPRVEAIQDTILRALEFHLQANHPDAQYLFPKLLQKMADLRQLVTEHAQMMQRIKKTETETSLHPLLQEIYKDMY

[4] = qHTS assay for small molecule activators of the heat shock response signaling pathway - cell viability counter screen (AID 743209); conditions: HSE-bla HeLa viability, CellTiter-Glo luminescence, 5 h; series mostly up to 62.6 µM; note: nearly all actives have a fitted effect of over 50% in size; note: potency is the fitted concentration of half-maximal effect
Summary of the method: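 To flag cytotoxic compounds, HSE-bla HeLa cells plated at 1500 cells/well were dosed for 5 h at 37 C, followed by the reporter FRET read and then CellTiter-Glo, with luminescence recorded 30 min after reagent addition.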

[5] = qHTS assay for small molecule activators of the heat shock response signaling pathway (AID 743210; active = well fitted activation curve with a large enough effect in the signal ratio in the repeat runs, with a control signal flat, not every such curve was filed as active; the % refers to the signal ratio); conditions: HeLa HSE-bla reporter, beta-lactamase ratio, 5 h; at 62.6 µM (top of the series) unless noted
Summary of the method: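 Compound exposure lasted 5 h at 37 C in HeLa cells carrying a heat-shock-element-driven beta-lactamase reporter. Read-out: fluorescence intensity after 2.5 h room-temperature loading with LiveBLAzer B/G FRET substrate.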

[6] = qHTS assay to identify small molecule agonists of the peroxisome proliferator-activated receptor delta (PPARd) signaling pathway - cell viability counter screen (AID 743211); conditions: PPARd-bla HEK293H viability, CellTiter-Glo luminescence, 17 h; series mostly up to 62.6 µM; note: nearly all actives have a fitted effect of over 55% in size; note: potency is the fitted concentration of half-maximal effect
Summary of the method: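 Viability was measured as CellTiter-Glo luminescence (30 min, room temperature) in the same wells as the beta-lactamase readout. GeneBLAzer PPARd UAS-bla HEK293H cells received compound after 5 h plating and were incubated 17 h at 37 C.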

[7] = qHTS assay to identify small molecule antagonists of the peroxisome proliferator-activated receptor delta (PPARd) signaling pathway - cell viability counter screen (AID 743213); conditions: PPARd-bla HEK293H viability, CellTiter-Glo luminescence, 17 h; series mostly up to 62 µM; note: nearly all actives have a fitted effect of over 50% in size; note: potency is the fitted concentration of half-maximal effect
Summary of the method: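 Cytotoxicity counter screen: CellTiter-Glo luminescence read 30 min after addition, in the same wells as the reporter assay. There, PPARd UAS-bla HEK293H cells (3000/well) were treated 17 h at 37 C with compound and 300 nM L165041.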

[8] = molecular target: Peroxisome proliferator-activated receptor gamma (Homo sapiens) (UniProt P37231); assay: qHTS assay to identify small molecule antagonists of the peroxisome proliferator-activated receptor gamma (PPARg) signaling pathway (AID 743191; calls by dose curve; note: nearly all actives have a fitted effect of over 30% in size); conditions: HEK293H PPARg-UAS-bla, beta-lactamase ratio, antagonist, 17 h; at 62.6 µM (top of the series) unless noted
[9] = molecular target: Peroxisome proliferator-activated receptor delta (Homo sapiens) (UniProt Q03181); assay: qHTS assay to identify small molecule agonists of the peroxisome proliferator-activated receptor delta (PPARd) signaling pathway (AID 743212; calls by dose curve); conditions: HEK293H PPARd-UAS-bla, beta-lactamase FRET ratio, 17 h; at 62.6 µM (top of the series)
Summary of the method: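 Beta-lactamase reporter readout: a ratiometric FRET signal from the LiveBLAzer substrate after 2 h at room temperature. Compound exposure at 37 °C in PPARδ-bla HEK293H cells driven by an upstream activator sequence.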
% is set by controls: 0 for no effect and ±100 for the full control effect.

O=C1C2CC=CCC2C(=O)N1SC(Cl)(Cl)C(Cl)Cl (stereo unspecified)
inactive: Potency [1]

NC(=O)Nc1ccc([As](=O)(O)O)cc1
inactive: Potency (Aromatase (Homo sapiens)) | Potency [2] | Potency [1] | Potency [3] | Potency [4] | activation [5] -0.446% and -0.86% | Potency [6] | Potency [7]

CC(C)OP(=S)(OC(C)C)SCCNS(=O)(=O)c1ccccc1
active: Potency [1] 5.45 µM
inactive: Potency [2] | Potency [4] | activation [5] 0.0276%

CN(C(=O)Cc1ccccc1)[C@H]1CC[C@@]2(CCCO2)C[C@@H]1N1CCCC1
inactive: Potency (Aromatase (Homo sapiens)) | Potency [1] | ratio activity, negative = inhibition [8] 7.88% | Potency [3] | Potency [4] | activation [5] 0.0582% | Potency [6] | activation [9] 1.11% | Potency [7]

CCCCC(CC)CO[P+](=O)OCC(CC)CCCC (stereo unspecified)
inactive: Potency (Aromatase (Homo sapiens)) | Potency [2] | Potency [1] | ratio activity, negative = inhibition [8] 0.543% | Potency [3] | Potency [4] | activation [5] -0.0125% | Potency [6] | activation [9] -1.93% | Potency [7]

O=P(Cl)(Oc1ccccc1)Oc1ccccc1
inactive: Potency (Aromatase (Homo sapiens)) | Potency [2] | Potency [1] | ratio activity, negative = inhibition [8] -2.86% | Potency [3] | Potency [4] | activation [5] -0.0858% | Potency [6] | activation [9] 1.46% | Potency [7]

O=[As]c1ccccc1 (stereo unspecified)
inactive: Potency [1]
active: Potency (Aromatase (Homo sapiens)) 0.306 µM | Potency [2] 0.433 µM | Potency [3] 0.49 µM | Potency [4] 0.776 µM | Potency [6] 0.616 µM | Potency [7] 0.616 µM

N#CSc1ccc([N+](=O)[O-])cc1[N+](=O)[O-]
inactive: Potency [1]

COC(=O)Cl
inactive: Potency (Aromatase (Homo sapiens)) | Potency [2] | Potency [1] | Potency [3] | Potency [4] | activation [5] 2.93% | Potency [6] | activation [9] -3.33%

CN(C(=O)Cc1ccc(Cl)c(Cl)c1)[C@H]1CC[C@@]2(CCCO2)C[C@@H]1N1CCCC1
inactive: Potency (Aromatase (Homo sapiens)) | Potency [2] | Potency [1] | ratio activity, negative = inhibition [8] -9.98% | Potency [3] | Potency [4] | activation [5] 0.35% | Potency [6] | activation [9] -1.32% | Potency [7]

CC(C)CCCCCCCOP(OCCCCCCCC(C)C)Oc1ccccc1
inactive: Potency (Aromatase (Homo sapiens)) | Potency [2] | Potency [1] | ratio activity, negative = inhibition [8] -14.5% | Potency [3] | Potency [4] | activation [5] 0.647% | Potency [6] | activation [9] -1.7% | Potency [7]

CCOC(=O)Cl
inactive: Potency (Aromatase (Homo sapiens)) | Potency [2] | Potency [1] | Potency [3] | Potency [4] | activation [5] 0.351% | Potency [6] | activation [9] -0.566% | Potency [7]

CCCCCCCCCCCCCC[P+](CCCCCC)(CCCCCC)CCCCCC
active: Potency [4] 6.9 µM | Potency [7] 7.74 µM
inactive: Potency [1]

CCCCO[P+](=O)OCCCC
inactive: Potency (Aromatase (Homo sapiens)) | Potency [2] | Potency [1] | ratio activity, negative = inhibition [8] -5.8% and 0.169% | Potency [3] | Potency [4] | activation [5] 0.617% and 0.112% | Potency [6] | Potency [7]

Cc1cc([N+](=O)[O-])cc([N+](=O)[O-])c1O
inactive: Potency [4]
inactive and 43.3 µM (active): Potency [1]

CN(C(=O)Cc1cccc2occc12)[C@H]1CC[C@@]2(CCCO2)C[C@@H]1N1CCCC1
inactive: Potency (Aromatase (Homo sapiens)) | Potency [2] | Potency [1] | ratio activity, negative = inhibition [8] -23.1% | Potency [3] | Potency [4] | activation [5] 0.579% | Potency [6] | Potency [7]

Cc1cc([N+](=O)[O-])c(O)c([N+](=O)[O-])c1
inactive: Potency (Aromatase (Homo sapiens)) | Potency [1] | ratio activity, negative = inhibition [8] -19% [at 81.1 µM] | Potency [3] | Potency [4] | activation [5] -0.769% [at 81.1 µM] | Potency [6] | Potency [7]

O=[p+]1oc2ccccc2c2ccccc21 (stereo unspecified)
inactive: Potency (Aromatase (Homo sapiens)) | Potency [2] | Potency [1] | ratio activity, negative = inhibition [8] 11.9% | Potency [3] | Potency [4] | activation [5] -0.74% | Potency [6] | activation [9] -1.26% | Potency [7]

O=[N+]([O-])c1ccc(S(=O)(=O)O)c([N+](=O)[O-])c1
inactive: Potency (Aromatase (Homo sapiens)) | Potency [2] | Potency [1] | Potency [3] | Potency [4] | Potency [6] | Potency [7]

O=[P+](Oc1ccccc1)Oc1ccccc1
inactive: Potency (Aromatase (Homo sapiens)) | Potency [2] | Potency [1] | ratio activity, negative = inhibition [8] 12% | Potency [3] | Potency [4] | activation [5] -0.0761% | Potency [6] | activation [9] -1.82% | Potency [7]

O=C(OC1CN2CCC1CC2)c1ccccc1 (stereo unspecified)
inactive: Potency (Aromatase (Homo sapiens)) | Potency [2] | Potency [1]

ClP(Cl)c1ccccc1
inactive: Potency (Aromatase (Homo sapiens)) | Potency [2] | ratio activity, negative = inhibition [8] 3.63% | Potency [4] | activation [5] 1.46% | Potency [6] | activation [9] -2.44% | Potency [7]

CN(N=O)C(=N)N[N+](=O)[O-]
inactive: activation [5] 1.04% | Potency [6] | Potency [7]

O=P(Cl)(Cl)c1ccccc1
inactive: Potency (Aromatase (Homo sapiens)) | Potency [2] | Potency [1] | ratio activity, negative = inhibition [8] 12.7% | Potency [3] | Potency [4] | activation [5] -1.2% | Potency [6] | activation [9] -1.11% | Potency [7]

COP(=S)(Cl)OC
inactive: Potency (Aromatase (Homo sapiens)) | Potency [2] | Potency [1] | Potency [3] | Potency [4] | activation [5] 3.98% [at 81.1 µM] | Potency [6] | Potency [7]

CCOP(=S)(CC)Sc1ccccc1 (stereo unspecified)
inactive: Potency [2] | Potency [1] | Potency [3] | Potency [4] | activation [5] 2.09% | Potency [6] | Potency [7]

CCNC(C)Cc1ccc2c(c1)OCO2 (stereo unspecified)
inactive: Potency [2] | Potency [1] | ratio activity, negative = inhibition [8] 3.39% [at 81.1 µM] | Potency [3] | Potency [4] | Potency [6] | Potency [7]
